From PubChem BioAssay
TrxR1 substrate: is turned over as a substrate by rat TrxR1; Potency, µM (highest dose often 114 µM); purified TrxR1 substrate turnover, NADPH consumption readout; AID 588456; 0.01% of 390,000 active; also: nearly all actives have a fitted effect of over 50% in size
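Rat TrxR1, dispensed at 90 nM, was prereduced with 400 uM NADPH (final) for 5 min at ~22 deg C, then incubated with compound 15 min before 400 uM selenite. A first-read NADPH fluorescence drop versus no-compound background flagged substrates.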
GALK inh: inhibitors of human galactokinase. P51570. Purified GALK, Kinase-Glo residual ATP luminescence. Potency, µM (doses to about 57.5 µM), usual class: inhibitors. 0.007% of 270,000 active. AID 1868
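Luminescence from leftover ATP (Ultra-Glo luciferase/luciferin) served as read-out after a 1 h room-temperature reaction of 5 nM GALK with 35 uM ATP and 100 uM galactose.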
TrxR1 inh: inhibitors of rat thioredoxin reductase 1; O89049; recombinant rTrxR1, NADPH fluorescence consumption, selenite substrate; Potency, µM (highest dose often 114 µM), most hits filed as inhibitors; 1% of 390,000 active; AID 588453; also: nearly all actives have a fitted effect of over 65% in size
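Rat TrxR1 (90 nM in the dispensed reagent) was pre-reduced with 400 uM NADPH for 5 min at room temperature, then incubated with compound for 15 min. After 400 uM selenite was added, NADPH fluorescence (Ex 340/Em 450 nm) was followed for 8 min.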
PINK1 expr mod: PINK1 expression modulation | Potency, µM (series often up to 76.6 µM), usual class: activators | PINK1 immunofluorescence, high-content cytometry, 24 h | 0.2% of 410,000 active; active = well fitted activation curve with a large enough effect; inconclusive = small, poorly fitted or top-dose-only effect; cell line not stated here; also: nearly all actives have a fitted effect of over 65% in size
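A stable cell line was treated with compounds at 5 concentrations for 24 hours, with CCCP as control. PINK1 levels and mitochondrial localization were measured by immunofluorescence with mitochondrial, cell and nuclear markers after fixation, read by laser-scanning cytometry.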
miR-21 FLuc: miR-21 reporter, rising signal | 340,000 tested, under 10 active | AID 2288 | HeLa miR-21 FLuc reporter, luciferase, 48 h | Potency, µM (titrated, usually from 38.3 µM); active = well fitted rising curve with a large enough effect; inconclusive = small, poorly fitted or top-dose-only effect; inactive = no such curve, though single readings can be large or run the other way;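 further: miR-21 action dims this reporter so a rising signal means less miR-21 action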
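HeLa miR-21-FLuc reporter line, endogenous miR-21; 2000 cells/well in DMEM/10% FBS; compound titration up to ~40uM final, 48 h, 37 degree Celsius; luciferase detection reagent, 15 min lysis, CCD luminescence.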
Of the large screens only hits and unclear results are named; the others gave an inactive call. Rows were chosen to be rich in hits. Some 1.1% of all compounds tested hit in one or more screens of this group. Unless noted, calls follow the shape of the dose curve; as a rule, active = well fitted curve in the direction sought with a large enough effect; inconclusive = small, poorly fitted or top-dose-only effect, or another doubt; inactive = no such curve, though single readings can be large; an effect the other way counts as inactive or inconclusive.

O=C(CN1C(=O)NC2(CCCC2)C1=O)Oc1ccc2ccc(=O)oc2c1	TrxR1 inh 79µM (no result: GALK inh, miR-21 FLuc)
O=C(CN1C(=O)NC2(CCCCC2)C1=O)Oc1ccc2c(C(F)(F)F)cc(=O)oc2c1	TrxR1 inh 40µM (no result: GALK inh, miR-21 FLuc)
Cc1ccc(CN(C)C(=O)c2cccc(S(=O)(=O)N3CCCC3)c2)o1	TrxR1 inh 40µM (no result: GALK inh, miR-21 FLuc)
COc1ccccc1CN(C)C(=O)c1cccc(S(=O)(=O)N2CCCC2)c1	none (no result: GALK inh, miR-21 FLuc)
CCOc1cc(CNCc2ccccc2)ccc1OCc1ccc(Cl)cc1	none
CCOc1cc(CNc2ccc(O)cc2)ccc1OCc1ccc(Cl)cc1Cl	TrxR1 inh 28µM, PINK1 expr mod inconclusive
CCOc1cccc(CNc2ccc(O)cc2)c1OCc1ccc(Cl)cc1	TrxR1 inh 45µM, PINK1 expr mod inconclusive (no result: GALK inh)
COc1ccc(-c2cc3nc(C)c(CCC(=O)N4CCN(c5cccc(Cl)c5)CC4)c(C)n3n2)c(OC)c1	none (no result: GALK inh)
CCOC(=O)c1c(C)c(-c2ccccc2)n(CC(=O)NC(CC)Cc2ccccc2)c1C (stereo not drawn)	none (no result: GALK inh)
C#CCNC(=O)C1=C[C@@H](C)[C@H](CCCO)[C@@H](OCC)O1	TrxR1 inh 18µM (no result: GALK inh, miR-21 FLuc)
COc1ccccc1N1CCN(C(c2ccccc2)c2nnnn2Cc2ccccc2)CC1 (stereo not drawn)	none (no result: GALK inh, miR-21 FLuc)
COc1ccccc1N1CCN(C(c2ccc(N(C)C)cc2)c2nnnn2CCc2ccccc2)CC1 (stereo not drawn)	TrxR1 inh 3.2µM
COc1ccc(Cl)cc1NC(=O)CN1C(=O)CSc2ccc(S(=O)(=O)N3CCCC3)cc21	none (no result: GALK inh)
COc1cc(C(=O)OCc2cc(=O)n3nc(C(C)C)sc3n2)cc(OC)c1OC	none (no result: GALK inh)
CCOC(=O)c1ccc(NC(=S)NCCC2=CCCCC2)cc1	PINK1 expr mod 32µM
Cc1ccnc(NC(c2ccsc2)c2ccc3ccc(C)nc3c2O)c1 (stereo not drawn)	TrxR1 inh 3.5µM
Cc1ccc2ccc(C(Nc3ccccn3)c3ccccc3)c(O)c2n1 (stereo not drawn)	TrxR1 inh inconclusive
COc1cc(C(Nc2ccccn2)c2ccc3ccc(C)nc3c2O)cc(OC)c1O (stereo not drawn)	TrxR1 inh 1.3µM
COc1ccc(C(Nc2cc(C)ccn2)c2ccc3ccc(C)nc3c2O)cc1 (stereo not drawn)	TrxR1 inh 14µM
Cc1cccc(NC(c2ccc(C)s2)c2ccc3ccc(C)nc3c2O)n1 (stereo not drawn)	TrxR1 inh 71µM
Cc1cccc(C(=O)N2CCc3cc(CNC(=O)COc4ccc(Cl)cc4)ccc32)c1	miR-21 FLuc inconclusive (no result: GALK inh)
O=C1C=CC(=O)N1c1ccc(OC(F)F)cc1	TrxR1 inh 1.1µM (no result: GALK inh)
O=C1C=CC(=O)N1c1ccc(O)cc1	TrxR1 inh 1.3µM
CCN(CC)S(=O)(=O)c1ccc(N2CCCCS2(=O)=O)cc1	none (no result: GALK inh)
CCC(=O)Nc1ccc(C)cc1-c1nc2ccccc2n(C(C)C(=O)Nc2ccccc2CC)c1=O (stereo not drawn)	none (no result: GALK inh)
CNc1oc(Cc2ccccc2)nc1S(=O)(=O)c1ccc(Cl)cc1	TrxR1 inh 11µM (no result: PINK1 expr mod)
O=S(=O)(c1ccc(Cl)cc1)c1nc(-c2ccccc2Br)oc1NCc1ccccc1	none (no result: GALK inh)
Cc1cc(C)c2oc(-c3cccc(NC(=O)c4ccco4)c3)nc2c1	none (no result: GALK inh)
Cc1cc(C)c2oc(-c3ccc(C)c(NC(=O)/C=C/c4ccco4)c3)nc2c1	TrxR1 inh 3.2µM (no result: GALK inh)
O=C(c1cccc(F)c1)N1CCC2(CC1)CN(c1ccc(-c3ccccc3)cc1)C2	none (no result: TrxR1 substrate, GALK inh, TrxR1 inh, miR-21 FLuc)
O=C(O)/C=C/C(=O)c1c(-c2ccccc2)[nH]c2ccccc12	TrxR1 inh 45µM
CC(=O)c1c(-c2ccccc2)[nH]c2ccccc12	none
COc1ccc(Cl)cc1-n1cc(-c2ccccc2)nc1SCC(=O)Nc1ccc(C)cc1	miR-21 FLuc inconclusive (no result: GALK inh)
Cc1ccc(SC(=O)c2c(C)noc2-c2cc(C)on2)cc1	TrxR1 inh 40µM (no result: GALK inh)
Cc1cc(-c2onc(C)c2C(=O)N/N=C/c2ccccc2)no1	none
Cc1nnc(SCc2cc(=O)n3c(C)cccc3n2)s1	none (no result: GALK inh)
CCN1/C(=C/c2cccc[n+]2C)Sc2ccc(OC)cc21	PINK1 expr mod 25µM, miR-21 FLuc inconclusive
CN1/C(=C/c2cccc[n+]2C)Sc2ccccc21	PINK1 expr mod 18µM, miR-21 FLuc inconclusive
COc1ccc2c(c1)N(C)/C(=C/c1cccc[n+]1C)S2	PINK1 expr mod 5µM, miR-21 FLuc inconclusive
Cc1ccc(C)c(NC(=O)C(c2ccccc2)N2Cc3ccccc3C2=O)c1 (stereo not drawn)	none (no result: GALK inh)
O=C(c1cnc2c(c1)COc1ccccc1-2)c1ccccc1O	none (no result: GALK inh)
Fc1ccc(CNc2nc(-c3ccc(Cl)cc3)cc(C(F)(F)F)n2)cc1	PINK1 expr mod 40µM (no result: GALK inh)
Fc1ccc(CNc2nc(-c3ccco3)cc(C(F)(F)F)n2)cc1	TrxR1 inh 25µM
Fc1ccc(-c2cc(C(F)(F)F)nc(NCc3ccccc3)n2)cc1	none (no result: GALK inh)
FC(F)(F)c1cc(-c2ccco2)nc(NCc2ccccc2)n1	TrxR1 inh inconclusive
CC(C)NC(=O)c1cn([C@H]2CC[C@@H](NC(=O)/C=C/c3cccs3)CC2)nn1	none (no result: TrxR1 substrate, GALK inh, TrxR1 inh, miR-21 FLuc)
Cc1c(-c2ccccc2)c(=O)oc2c(CN3CCN(C)CC3)c(O)ccc12	none (no result: GALK inh)
CCN(CC)c1ccc(/C=C(/C#N)C(=O)NCc2ccccc2)o1	TrxR1 inh inconclusive, PINK1 expr mod 32µM
